pIC50: −log10 of the molar value.
Target: Peptidyl-prolyl cis-trans isomerase FKBP1A (Homo sapiens, UniProt P62942)
Assay: Binding affinity to FKBP12 by fluorescence polarization assay

By UniProt entry, the sequences of proteins in these tests, tags left out.
UniProt P62942, whole entry: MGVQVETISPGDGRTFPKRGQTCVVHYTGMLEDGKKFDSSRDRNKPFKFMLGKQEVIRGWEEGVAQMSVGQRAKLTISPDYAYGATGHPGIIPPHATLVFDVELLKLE

pIC50: 7.00
SMILES: CCC(C)(C)C(=O)C(=O)N1CCCC[C@H]1C(=O)O[C@H](CCc1ccc(OC)c(OC)c1)c1cccc(N)c1

Reference: ChEMBL document CHEMBL2057129, “Evaluation of synthetic FK506 analogues as ligands for the FK506-binding proteins 51 and 52” (J Med Chem, 2012)
